These results are taken from patent US20070160574A1, “Design of CXC chemokine analogs for the treatment of human diseases” (priority 2000, published 2007).

The target in experiment [1] is T1, CXCR3 receptor (CXCR-3/300-19 cells) (Homo sapiens, UniProt P49682).
T1 construct: expressed in transfected cells; host or cells: 300-19 mouse pre-B lymphocytes (CXCR-3/300-19)
T1 sequence (P49682 1-368): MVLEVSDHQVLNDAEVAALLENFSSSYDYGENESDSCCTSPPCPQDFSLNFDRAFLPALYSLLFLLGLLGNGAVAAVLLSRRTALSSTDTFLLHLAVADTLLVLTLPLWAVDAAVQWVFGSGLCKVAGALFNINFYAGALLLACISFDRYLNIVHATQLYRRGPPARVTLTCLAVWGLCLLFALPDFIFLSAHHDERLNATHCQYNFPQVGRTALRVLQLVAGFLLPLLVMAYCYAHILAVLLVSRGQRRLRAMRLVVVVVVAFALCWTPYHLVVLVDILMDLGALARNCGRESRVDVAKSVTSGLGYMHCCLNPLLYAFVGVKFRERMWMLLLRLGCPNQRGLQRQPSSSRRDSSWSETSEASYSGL
Briefly: [Ca2+]i mobilization by IP-10 analogs, FLIPR Calcium 3 kit, CXCR-3/300-19 cells. The note with it: for effect on intracellular calcium mobilization (in words): FIG. 1, 100 μM, comparison between analogs; for calcium mobilization activity of the cells: CXCR-3/300-19 cells. The class given is cell-based. The protocol: Binding and Calcium Mobilization: Suspensions of CXCR-3/300-19 cells were used to assess binding and intracellular calcium mobilization induced by IP-10 analogs. These are mouse pre-B lymphocytes transfected with the CXCR3 receptor, (Moser, et al). The cells were washed in RPMI media and resuspended in RPMI media supplemented with 10% FCS, then plated at 1.2×10^5 cells per well of 96-well black wall/clear bottom plates coated with poly-D-lysine (Becton Dickinson) and loaded with 100 uL fluorescent calcium indicator FLIPR Calcium 3 assay kit component A (Molecular Probes) for 1 hr at 37° C. The cells on the plates were then spun at 1000 rpm for 15 minutes at room temperature.
Each of the sequences successfully bound to the cellular receptors. The intracellular calcium mobilization in response to 25 uL (0-100000 nM final concentrations) of the appropriate and various concentrations of analogue was measured at 37° C. by monitoring fluorescence as a function of time in all the wells using the Flexstation Fluorometric Imaging Plate Reader (Molecular Devices). All analogues were run simultaneously with rhIP-10 (R&D Systems) as the standard. Table 7 provides the dosage effect of the binding of each of the IP-10 analogs on the calcium mobilization activity of the cells.

The test system of experiment [2] is IL-8 receptor (differentiated HL-60 cells). The experiment is described as follows: Calcium mobilization in differentiated HL-60 cells, Fluo-4/AM. The experiment is classed as cell-based. The note with it: over control wells (plain medium = 1.0), about 10 to 200 μg/ml. As to the method:
The HL-60 cells are cultured as described above, harvested and suspended in Tyrode's salt solution at a density of about 2×10^6 cells/ml. The Tyrode's salt solution contains about 137 mM NaCl, 2.7 mM KCl, 1 mM MgCl2, 1 mM CaCl2, 0.2 mM NaH2PO4, 12 mM NaHCO3, and 5.5 mM glucose.
The cells are labeled with 4 μM of Fluo-4/AM (Molecular Probes, Inc.) for 45 minutes at 37° C. to measure calcium mobilization from cells. The label is a dye that fluoresces when bound to calcium. […] An increase in fluorescence indicates an increase in calcium mobilization. The cells are washed three times with the Tyrode's salt solution after labeling and re-suspended at 5×10^6 cells/ml.
Changes in the level of cellular fluorescence are read in a Thermo Labsystems Fluorskan Acsent fluorescence plate reader (VWR Scientific Prod's). The controls include cells treated with either the native chemokine or the plain medium of Tyrode's Salt Solution. Data is expressed using 1.0 as the standard level of fluorescence in the plain medium. The reported values represent the mean of at least duplicate measurements from wells in one or more experiments.

Structures are written as SMILES.

In the case of `CC(C)C[C@H](NC(=O)[C@H](Cc1ccccc1)NC(=O)[C@H](CCCCN)NC(=O)[C@H](CCC(=O)O)NC(=O)[C@@H](NC(=O)[C@@H](NC(=O)[C@H](CCCNC(=N)N)NC(=O)[C@H](CCC(N)=O)NC(=O)[C@@H](NC(=O)[C@H](Cc1c[nH]c2ccccc12)NC(=O)[C@@H](N)CC(N)=O)C(C)C)C(C)C)C(C)C)C(=O)N[C@@H](CCCCN)C(=O)N[C@@H](CCCNC(=N)N)C(=O)N[C@@H](C)C(=O)N[C@@H](CCC(=O)O)C(=O)N[C@@H](CC(N)=O)C(N)=O` [SEQ ID NO:1642], in experiment [1], the “effect on intracellular calcium mobilization (in words)” value was “decreased the calcium mobilization dramatically”. Besides, the calcium mobilization activity of the cells came out at 15.2% in experiment [1] (dosage 1.2 μM); 13.8% in experiment [1] (dosage 3.7 μM); 15.4% in experiment [1] (dosage 11.1 μM); 20% in experiment [1] (dosage 33.3 μM); 3.1% in experiment [1] (dosage 100 μM).
`CC[C@H](C)[C@H](NC(=O)[C@H](CS)NC(=O)[C@H](CCC(N)=O)NC(=O)[C@H](CS)NC(=O)[C@H](CCCNC(=N)N)NC(=O)[C@H](CC(C)C)NC(=O)[C@H](CCC(=O)O)NC(=O)[C@H](CCCCN)NC(=O)[C@H](C)NC(=O)[C@@H](N)CO)C(=O)N[C@@H](CCCCN)C(=O)N[C@H](C(=O)N[C@@H](Cc1ccc(O)cc1)C(=O)N[C@@H](CO)C(=O)N[C@@H](CCCCN)C(=O)NCC(=O)NCC(=O)NCC(=O)NCC(=O)N[C@@H](CC(N)=O)C(=O)N[C@@H](Cc1c[nH]c2ccccc12)C(=O)N[C@H](C(=O)N[C@@H](CCC(N)=O)C(=O)N[C@@H](CCCNC(=N)N)C(=O)N[C@H](C(=O)N[C@H](C(=O)N[C@@H](CCC(=O)O)C(=O)N[C@@H](CCCCN)C(=O)N[C@@H](Cc1ccccc1)C(=O)N[C@@H](CC(C)C)C(=O)N[C@@H](CCCCN)C(=O)N[C@@H](CCCNC(=N)N)C(=O)N[C@@H](C)C(=O)N[C@@H](CCC(=O)O)C(=O)N[C@@H](CC(N)=O)C(N)=O)C(C)C)C(C)C)C(C)C)[C@@H](C)O` [SEQ ID NO:1645]: in experiment [1], the “effect on intracellular calcium mobilization (in words)” value was “decreased the effect on calcium mobilization dramatically”. The calcium mobilization activity of the cells in experiment [1] (dosage 1.2 μM) came to 17.4%; in experiment [1] (dosage 3.7 μM), 15.4%; in experiment [1] (dosage 11.1 μM) it was 12.5%; in experiment [1] (dosage 33.3 μM), 13.3%; in experiment [1] (dosage 100 μM) it was 3.4%.
Regarding `CC[C@H](C)[C@H](NC(=O)[C@H](Cc1c[nH]c2ccccc12)NC(=O)[C@H](CCC(N)=O)NC(=O)[C@H](Cc1ccc(O)cc1)NC(=O)[C@H](CCCNC(=N)N)NC(=O)[C@H](CC(C)C)NC(=O)[C@H](CCC(=O)O)NC(=O)[C@H](CCCCN)NC(=O)[C@H](C)NC(=O)[C@H](CO)NC(C)=O)C(=O)N[C@@H](CCCNC(=N)N)C(=O)N[C@H](C(=O)N[C@@H](Cc1ccc(O)cc1)C(=O)N[C@@H](CO)C(=O)N[C@@H](CCCNC(=N)N)C(=O)NCCCCCCCCCCC(=O)N[C@@H](CC(N)=O)C(=O)N[C@@H](Cc1c[nH]c2ccccc12)C(=O)N[C@H](C(=O)N[C@@H](CCC(N)=O)C(=O)N[C@@H](CCCNC(=N)N)C(=O)N[C@H](C(=O)N[C@H](C(=O)N[C@@H](CCC(=O)O)C(=O)N[C@@H](CCCCN)C(=O)N[C@@H](Cc1ccccc1)C(=O)N[C@@H](CC(C)C)C(=O)N[C@@H](CCCCN)C(=O)N[C@@H](CCCNC(=N)N)C(=O)N[C@@H](C)C(=O)N[C@@H](CCC(=O)O)C(=O)N[C@@H](CC(N)=O)C(N)=O)C(C)C)C(C)C)C(C)C)[C@@H](C)O` [SEQ ID NO:1673], the “Average fold increase in calcium mobilization” value in experiment [2] was 5.7.
For `CC[C@H](C)[C@H](NC(=O)[C@H](Cc1c[nH]c2ccccc12)NC(=O)[C@H](CCC(N)=O)NC(=O)[C@H](Cc1c[nH]c2ccccc12)NC(=O)[C@H](CCCNC(=N)N)NC(=O)[C@H](CC(C)C)NC(=O)[C@H](CCC(=O)O)NC(=O)[C@H](CCCCN)NC(=O)[C@H](C)NC(=O)[C@H](CO)NC(C)=O)C(=O)N[C@@H](CCCNC(=N)N)C(=O)N[C@H](C(=O)N[C@@H](Cc1ccc(O)cc1)C(=O)N[C@@H](CO)C(=O)N[C@@H](CCCNC(=N)N)C(=O)NCCCCCCCCCCC(=O)N[C@@H](CC(N)=O)C(=O)N[C@@H](Cc1c[nH]c2ccccc12)C(=O)N[C@H](C(=O)N[C@@H](CCC(N)=O)C(=O)N[C@@H](CCCNC(=N)N)C(=O)N[C@H](C(=O)N[C@H](C(=O)N[C@@H](CCC(=O)O)C(=O)N[C@@H](CCCCN)C(=O)N[C@@H](Cc1ccccc1)C(=O)N[C@@H](CC(C)C)C(=O)N[C@@H](CCCCN)C(=O)N[C@@H](CCCNC(=N)N)C(=O)N[C@@H](C)C(=O)N[C@@H](CCC(=O)O)C(=O)N[C@@H](CC(N)=O)C(N)=O)C(C)C)C(C)C)C(C)C)[C@@H](C)O` [SEQ ID NO:1674], the “Average fold increase in calcium mobilization” value in experiment [2] stood at 1.4.
Turning to `CC[C@H](C)[C@H](NC(=O)[C@H](Cc1c[nH]c2ccccc12)NC(=O)[C@H](CCC(N)=O)NC(=O)[C@H](Cc1c[nH]cn1)NC(=O)[C@H](CCCNC(=N)N)NC(=O)[C@H](CC(C)C)NC(=O)[C@H](CCC(=O)O)NC(=O)[C@H](CCCCN)NC(=O)[C@H](C)NC(=O)[C@H](CO)NC(C)=O)C(=O)N[C@@H](CCCNC(=N)N)C(=O)N[C@H](C(=O)N[C@@H](Cc1ccc(O)cc1)C(=O)N[C@@H](CO)C(=O)N[C@@H](CCCNC(=N)N)C(=O)NCCCCCCCCCCC(=O)N[C@@H](CC(N)=O)C(=O)N[C@@H](Cc1c[nH]c2ccccc12)C(=O)N[C@H](C(=O)N[C@@H](CCC(N)=O)C(=O)N[C@@H](CCCNC(=N)N)C(=O)N[C@H](C(=O)N[C@H](C(=O)N[C@@H](CCC(=O)O)C(=O)N[C@@H](CCCCN)C(=O)N[C@@H](Cc1ccccc1)C(=O)N[C@@H](CC(C)C)C(=O)N[C@@H](CCCCN)C(=O)N[C@@H](CCCNC(=N)N)C(=O)N[C@@H](C)C(=O)N[C@@H](CCC(=O)O)C(=O)N[C@@H](CC(N)=O)C(N)=O)C(C)C)C(C)C)C(C)C)[C@@H](C)O` [SEQ ID NO:1675], the “Average fold increase in calcium mobilization” value in experiment [2] is on record as 12.2.
